Each block holds one compound with its values, some of them ahead of it.
Assays:
[1] = Calculated conditional stability constants for chelants with Cu^+2 at specified pH; format: physicochemical
Description: However, as the pH range of the present compositions are acidic (i.e., less than 7), the log alpha value (αm) is considered to be constant and approximately negligible.
The calculated stability constants for a range of chelants with Fe^+3, Cu^+2, and Ca^+2 are given below in Table 3: […]

[2] = Calculated conditional stability constants for chelants with Fe^+3 at specified pH; conditions: pH 5
Description: The gradual change in ligand species as pH changes can be represented using alpha (α) coefficients, defined as: [formula] […] By combining stability (K) and alpha (α) constants at a given pH, the formula below provides the effective chelating power of a chelant.

[3] = 1:1 complex, fully deprotonated chelant, 25° C., 0.1M ionic strength; cited from earlier work

log Conditional Stability Constant (@ pH) Cu^+2 ([1]; pH 7): 15.06
log Conditional Stability Constant (@ pH) Fe^+3 [2]: 15.11
SMILES: O=C(O)CC(NCCNC(CC(=O)O)C(=O)O)C(=O)O (mixture of isomers) [EDDS, ethylene diamine disuccinic acid]

SMILES: O=P(O)(O)CN(CCN(CP(=O)(O)O)CP(=O)(O)O)CP(=O)(O)O [EDTMP]
log K Fe [3]: 6.5

log Conditional Stability Constant (@ pH) Cu^+2 ([1]; pH 8): 11.11
SMILES: CC(C(=O)O)N(CC(=O)O)CC(=O)O (stereo not shown) [MGDA, methylglycinediacetic acid]

— patent US20130333715A1, “SHAMPOO COMPOSITIONS AND METHODS OF MAKING SAME” (The Procter & Gamble Company, priority 2012, published 2013)
